These are literature values, as cited in patent US20100004234A1, “SPECIFIC KINASE INHIBITORS” (Kosan Biosciences Incorporated, priority 2004, published 2010).

This series addresses T1, TAK1 MEKK enzyme (Homo sapiens, UniProt O43318).
T1 sequence (O43318 1-606): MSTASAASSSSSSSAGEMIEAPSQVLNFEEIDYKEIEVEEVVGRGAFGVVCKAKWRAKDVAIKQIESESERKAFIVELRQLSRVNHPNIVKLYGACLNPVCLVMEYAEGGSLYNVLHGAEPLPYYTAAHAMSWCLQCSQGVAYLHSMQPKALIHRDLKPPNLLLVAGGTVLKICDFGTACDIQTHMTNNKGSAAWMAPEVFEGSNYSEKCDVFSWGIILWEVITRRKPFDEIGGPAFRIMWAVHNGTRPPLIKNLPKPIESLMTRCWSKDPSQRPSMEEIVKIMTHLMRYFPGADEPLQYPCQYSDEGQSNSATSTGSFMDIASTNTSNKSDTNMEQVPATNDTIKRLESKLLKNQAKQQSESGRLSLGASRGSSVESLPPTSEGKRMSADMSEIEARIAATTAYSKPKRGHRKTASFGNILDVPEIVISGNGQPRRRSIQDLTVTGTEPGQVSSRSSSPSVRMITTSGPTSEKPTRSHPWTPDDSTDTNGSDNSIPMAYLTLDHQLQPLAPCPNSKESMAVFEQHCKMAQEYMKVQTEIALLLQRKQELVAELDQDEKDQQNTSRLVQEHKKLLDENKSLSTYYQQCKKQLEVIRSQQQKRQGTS
T1 sequence (Q15750 1-504 partner): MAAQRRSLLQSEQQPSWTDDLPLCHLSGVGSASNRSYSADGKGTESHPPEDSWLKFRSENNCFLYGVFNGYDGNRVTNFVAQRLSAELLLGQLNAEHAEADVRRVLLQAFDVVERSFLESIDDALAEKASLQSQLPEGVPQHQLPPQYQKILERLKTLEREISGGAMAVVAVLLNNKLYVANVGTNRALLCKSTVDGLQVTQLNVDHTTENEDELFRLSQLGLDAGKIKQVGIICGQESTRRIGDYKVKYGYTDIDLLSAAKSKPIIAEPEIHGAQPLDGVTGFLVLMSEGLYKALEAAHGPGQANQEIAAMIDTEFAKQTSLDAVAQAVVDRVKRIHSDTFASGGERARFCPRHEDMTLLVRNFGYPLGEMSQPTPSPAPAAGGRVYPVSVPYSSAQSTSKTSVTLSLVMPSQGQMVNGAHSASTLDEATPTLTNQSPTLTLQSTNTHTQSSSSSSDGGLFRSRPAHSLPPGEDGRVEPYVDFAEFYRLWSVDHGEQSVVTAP
The note with it: cited from earlier work.

pIC50: −log10 of the molar value.

The term pIC50 denotes the negative decadic logarithm of the IC50, by convention in mol/L. Take `COc1cc(O)c2c(c1)/C=C/C[C@H](O)[C@H](O)C(=O)/C=C\C[C@H](C)OC2=O` [(5Z)-7-oxozeaneol]: the pIC50 is 8.10.
